# Assays:
# Amino acid sequences for entries named in this document (tags omitted).
# UniProt P35372, whole entry: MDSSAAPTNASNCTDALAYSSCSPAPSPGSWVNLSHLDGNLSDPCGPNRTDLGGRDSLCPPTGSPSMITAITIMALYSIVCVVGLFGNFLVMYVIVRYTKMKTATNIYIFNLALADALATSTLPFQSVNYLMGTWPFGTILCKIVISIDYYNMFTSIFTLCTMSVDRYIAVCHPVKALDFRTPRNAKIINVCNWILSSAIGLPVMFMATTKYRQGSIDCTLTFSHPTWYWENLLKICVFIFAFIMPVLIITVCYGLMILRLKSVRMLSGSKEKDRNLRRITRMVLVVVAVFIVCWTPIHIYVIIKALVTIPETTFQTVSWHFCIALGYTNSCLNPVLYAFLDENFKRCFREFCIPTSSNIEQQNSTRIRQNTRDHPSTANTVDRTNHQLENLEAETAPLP
# UniProt P41145, whole entry: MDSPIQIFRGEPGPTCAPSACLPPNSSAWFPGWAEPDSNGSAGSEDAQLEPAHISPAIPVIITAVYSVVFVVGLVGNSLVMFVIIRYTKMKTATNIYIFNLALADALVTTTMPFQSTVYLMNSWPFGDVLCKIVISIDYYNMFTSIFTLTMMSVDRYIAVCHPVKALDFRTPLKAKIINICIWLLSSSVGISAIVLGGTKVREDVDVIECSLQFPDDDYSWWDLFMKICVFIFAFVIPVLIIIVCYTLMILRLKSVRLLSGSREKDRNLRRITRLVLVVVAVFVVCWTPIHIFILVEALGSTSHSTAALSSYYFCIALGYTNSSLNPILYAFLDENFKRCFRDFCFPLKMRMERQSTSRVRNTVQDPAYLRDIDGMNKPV
# human μ opioid receptor = human μ opioid receptor (Homo sapiens, UniProt P35372); assay: Opioid receptor binding assay, [3H]DAMGO (μ); details: read-out: Ki [3H]DAMGO (μ), CHO cell membranes, 0.25 nM [3H]DAMGO, ± S.E.
# human κ opioid receptor = human κ opioid receptor (Homo sapiens, UniProt P41145); assay: Opioid receptor binding assay, [3H]U69,593 (κ); details: read-out: Ki [3H]U69,593 (κ), CHO cell membranes, 1 nM [3H]U69,593, ± S.E.
# human δ opioid receptor = human δ opioid receptor (Homo sapiens, UniProt P41143); assay: Opioid receptor binding assay, [3H]naltrindole (δ); details: read-out: Ki [3H]Naltrindole (δ), CHO cell membranes, 0.2 nM [3H]naltrindole, ± S.E.
structure (smiles),measurement,setting,value
CC1C2Cc3ccc(C(=O)NCCc4ccc(-c5ccc(N(C)C)cc5)cc4)cc3C1(C)CCN2CC1CC1 (stereo not drawn),Ki,human μ opioid receptor,0.087 nM
same,Ki,human κ opioid receptor,0.76 nM
same,Ki,human δ opioid receptor,1.4 nM

# — patent US20100190817A1, “LARGE SUBSTITUENT, NON-PHENOLIC AMINE OPIOIDS” (RENSSELAER POLYTECHNIC INSTITUTE, priority 2008, published 2010)
